{
  "source": "patent US11542298B2",
  "about": "“Hydroxysteroid compounds, their intermediates, process of preparation, composition and uses thereof” (Epirium Bio Inc., priority 2014, dated 2023)",
  "key": {"[1]": {"test_system": "PPARGC1a-PGC1a-, TFAM, subunits 1 and 2 of cytochrome oxidase, Nrf1 and TFB2M", "settings": "HepG2, 3 hours; for expression of mitochondrial transcription factors (PGC1a, TFAM, cytochrome oxidase subunits 1 and 2 mRNA): FIG. 1b; for expression of mitochondrial transcription factors (Nrf1 and TFB2M mRNA): FIG. 3a"}, "[2]": {"test_system": "HepG2 cells", "settings": "HepG2, 10 nM, FIG. 4"}, "[3]": {"settings": "listed as 11β-hydroxypregnenolone"}},
  "note": "Where two headings read alike, the source gives them in different places.",
  "data": [
    {"compound": "CC(=O)C1CC[C@H]2[C@@H]3CC=C4CC(O)CC[C@]4(C)[C@H]3[C@@H](O)C[C@]12C", "note": "(stereo partly drawn) [Compound 1039, 1-((8S,9S,10R,11S,13S,14S)-3,11-dihydroxy-10,13-dimethyl-2,3,4,- 7,8,9,10,11,12,13,14,15,16,17-tetradecahydro-1H-cyclopenta[a]-phenanthren-17-yl)ethanone]", "values": [
      {"measurement": "expression of mitochondrial transcription factors (PGC1a, TFAM, cytochrome oxidase subunits 1 and 2 mRNA)", "setting": "[1]", "result": "expresses mitochondrial transcription factors as early as 3 hours of exposure"},
      {"measurement": "expression of mitochondrial transcription factors (PGC1a, TFAM, cytochrome oxidase subunits 1 and 2 mRNA)", "setting": "[1]; [3]", "result": "stimulation of expression of mitochondrial transcription factors"},
      {"measurement": "expression of mitochondrial transcription factors (Nrf1 and TFB2M mRNA)", "setting": "[1]", "result": "stimulates the expression of mitochondrial transcription factors"},
      {"measurement": "expression of mitochondrial transcription factors (Nrf1 and TFB2M mRNA)", "setting": "[1]; [3]", "result": "stimulation of expression of mitochondrial transcription factors"},
      {"measurement": "mitochondrial superoxide generation", "setting": "[2]", "result": "reduces superoxide generation in mitochondria"},
      {"measurement": "mitochondrial superoxide generation", "setting": "[2]; [3]", "result": "reduction of mitochondrial superoxide generation"}
    ]}
  ]
}
